{
  "sequences": {"note": "Amino acid sequences for entries named in this document (tags omitted). A change or cut given only in a name is not applied to a line headed by its entry.", "UniProt P09874, whole entry, looked up": "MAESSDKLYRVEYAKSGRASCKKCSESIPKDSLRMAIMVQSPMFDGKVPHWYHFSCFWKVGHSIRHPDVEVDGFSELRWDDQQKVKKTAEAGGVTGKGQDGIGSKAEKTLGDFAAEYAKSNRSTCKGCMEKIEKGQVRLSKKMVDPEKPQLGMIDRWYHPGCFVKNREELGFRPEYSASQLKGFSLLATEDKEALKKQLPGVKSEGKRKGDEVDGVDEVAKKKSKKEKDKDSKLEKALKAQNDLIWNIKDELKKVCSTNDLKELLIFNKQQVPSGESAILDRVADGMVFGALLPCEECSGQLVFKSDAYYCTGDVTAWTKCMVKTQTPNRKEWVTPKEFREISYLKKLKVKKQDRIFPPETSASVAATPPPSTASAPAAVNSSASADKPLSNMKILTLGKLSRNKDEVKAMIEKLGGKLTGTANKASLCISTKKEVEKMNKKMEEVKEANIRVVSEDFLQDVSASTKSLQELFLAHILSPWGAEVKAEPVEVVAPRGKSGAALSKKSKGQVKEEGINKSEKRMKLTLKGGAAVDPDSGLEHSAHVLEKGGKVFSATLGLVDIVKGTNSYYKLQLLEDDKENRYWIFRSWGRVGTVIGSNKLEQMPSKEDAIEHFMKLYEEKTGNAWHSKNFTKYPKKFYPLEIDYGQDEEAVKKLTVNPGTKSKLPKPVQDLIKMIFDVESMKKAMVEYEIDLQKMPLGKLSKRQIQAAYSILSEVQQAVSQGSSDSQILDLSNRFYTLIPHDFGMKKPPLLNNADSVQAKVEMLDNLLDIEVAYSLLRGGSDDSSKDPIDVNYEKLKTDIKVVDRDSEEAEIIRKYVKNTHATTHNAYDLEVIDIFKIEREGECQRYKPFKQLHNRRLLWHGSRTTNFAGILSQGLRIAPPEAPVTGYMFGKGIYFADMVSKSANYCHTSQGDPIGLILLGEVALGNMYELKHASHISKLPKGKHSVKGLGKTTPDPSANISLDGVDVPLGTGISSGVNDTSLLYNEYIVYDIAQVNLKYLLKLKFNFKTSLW", "UniProt Q9H2K2": "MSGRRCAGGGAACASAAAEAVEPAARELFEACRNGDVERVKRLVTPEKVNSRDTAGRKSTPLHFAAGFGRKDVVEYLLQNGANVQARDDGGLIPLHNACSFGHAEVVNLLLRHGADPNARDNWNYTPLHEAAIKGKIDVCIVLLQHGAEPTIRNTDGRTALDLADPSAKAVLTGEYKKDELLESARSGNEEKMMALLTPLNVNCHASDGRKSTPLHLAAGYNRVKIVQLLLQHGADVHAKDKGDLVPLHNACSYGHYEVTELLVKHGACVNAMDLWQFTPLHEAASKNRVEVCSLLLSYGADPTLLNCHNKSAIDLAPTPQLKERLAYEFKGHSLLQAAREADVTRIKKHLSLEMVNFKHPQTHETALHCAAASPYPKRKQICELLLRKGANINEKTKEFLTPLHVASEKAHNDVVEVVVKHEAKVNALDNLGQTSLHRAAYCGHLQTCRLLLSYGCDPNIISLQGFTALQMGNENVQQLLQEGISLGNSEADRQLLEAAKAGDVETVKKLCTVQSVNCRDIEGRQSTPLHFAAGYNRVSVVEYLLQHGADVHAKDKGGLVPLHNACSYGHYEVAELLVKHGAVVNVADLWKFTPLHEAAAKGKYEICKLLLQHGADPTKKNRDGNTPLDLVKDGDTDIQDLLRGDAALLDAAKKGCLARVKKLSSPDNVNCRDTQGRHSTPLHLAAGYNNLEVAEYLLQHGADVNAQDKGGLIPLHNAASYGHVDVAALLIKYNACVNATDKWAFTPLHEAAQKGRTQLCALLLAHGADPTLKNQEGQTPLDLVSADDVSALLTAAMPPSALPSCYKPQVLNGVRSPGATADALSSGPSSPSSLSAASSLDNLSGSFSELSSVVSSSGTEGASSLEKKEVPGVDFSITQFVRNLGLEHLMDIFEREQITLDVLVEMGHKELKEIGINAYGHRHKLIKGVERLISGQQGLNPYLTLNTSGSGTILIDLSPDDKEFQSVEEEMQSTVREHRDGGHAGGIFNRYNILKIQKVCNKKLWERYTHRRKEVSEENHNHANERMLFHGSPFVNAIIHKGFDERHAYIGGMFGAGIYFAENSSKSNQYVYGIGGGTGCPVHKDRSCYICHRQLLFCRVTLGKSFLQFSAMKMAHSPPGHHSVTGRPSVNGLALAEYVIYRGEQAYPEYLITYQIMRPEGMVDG"},
  "source": "patent US9255080B2",
  "about": "“Quinazolinedione derivatives as PARP inhibitors” (Janssen Pharmaceutica NV, priority 2004, dated 2016)",
  "format_in_all_cases": "biochemical",
  "key": {"[1]": {"biological_target": "T1, PARP-1 enzyme (Homo sapiens, UniProt P09874)", "assay": "In vitro filtration assay for PARP-1 inhibitory activity", "conditions": "[32P]-NAD, histones, nicked DNA"}, "[2]": {"biological_target": "T1, PARP-1 enzyme", "assay": "In vitro scintillation proximity assay (SPA) for PARP-1 inhibitory activity", "conditions": "[3H]-NAD+, biotinylated histones, nicked DNA"}, "[3]": {"biological_target": "TANK-2 enzyme (Homo sapiens, UniProt Q9H2K2)", "assay": "In vitro scintillation proximity assay (SPA) for TANK-2 inhibitory activity", "conditions": "auto-poly(ADP-ribosyl)ation, [3H]-NAD+; 96-well results if available, otherwise 384-well", "description": "In Vitro Scintillation Proximity Assay (SPA) for TANK-2 Inhibitory Activity\nCompounds of the present invention were tested in an in vitro assay based on SPA technology with Ni Flash plates (96 or 384 well).\nIn principle, the assay relies upon SPA technology for the detection of auto-poly(ADP-ribosyl)ation of TANK-2 protein using [^3H]-nicotinamide adenine dinucleotide ([^3H]-NAD^+) as ADP-ribosyl donor.\nA stock solution of [^3H]-NAD^+/NAD was made by adding 64.6 μl of [^3H]-NAD^+ (0.1 mCi/ml, supplier: Perkin Elmer) and 46.7 μl NAD-stock (10.7 mM, stored at −20° C., supplier Roche) to 1888.7 μl assay buffer (60 mM Tris/HCl, pH 7.4; 0.9 mM DTT; 6 mM MgCl2). The TANK-2 enzyme was produced as described in EP1238063. 60 μl of assay buffer, together with 1 μl of compound in DMSO, 20 μl of [^3H]-NAD^+/NAD and 20 μl of TANK-2 enzyme (final concentration 6 μg/ml) was added per well into a 96-well Ni-coated flash plate (Perkin Elmer). After incubation of the mixture for 120 min. at room temperature, the reaction was terminated by adding 60 μl of stopsolution (42.6 mg NAD in 6 ml H2O). […] Values were expressed as counts per minute (cpm). […] For each sample, the amount of cpm was expressed as a percentage of the mean cpm value of the controls. […] Herein the effects of test compounds are expressed as pIC50 (the negative log value of the IC50-value). […]"}},
  "data": [
    {"compound": "O=c1[nH]c(=O)n(C2CCN(CCn3c(=O)[nH]c4ccccc4c3=O)CC2)c2ccccc12", "values": [
      {"measurement": "in vitro filter assay PARP-1 pIC50", "setting": "[1]", "value": 5.642},
      {"measurement": "in vitro SPA assay PARP-1 pIC50", "setting": "[2]", "value": 6.257},
      {"measurement": "in vitro SPA assay TANK-2 pIC50", "setting": "[3]", "value": 5.158}
    ]}
  ]
}
